Results: US5232633A, “Sulfoethyl carbonate wetting agents and their use in detergent compositions” (priority 1992, dated 1993)

Legend:
[1] = Foam height, Ross-Miles method; format: physicochemical; settings: 45° C., water with 120 ppm calcium hardness; for Foam Ht., 10 min Ht.: after 10 minutes
[2] = test system: zein; settings: 1% solution of surfactant (30 mls), 1.5 g zein, room temperature, 1 hr
Description: Specifically, the lower the amount of zein protein dissolved, usually the milder a surfactant is. Conversely, the more zein dissolved, typically the more irritating the surfactant is. In order to test irritancy potential, a 1% solution of surfactant (30 mls) was added to 1.5 g zein and stirred at room temperature for 1 hr. Residual zein was collected and dried to constant weight. Differences between starting and residual weights were used to calculate % zein dissolved.

Row | Foam Ht., 10 min Ht. [1] | Compound | Foam Ht., Initial Ht. [1] | % Zein Solub. [2]
1 |  | CCCCCCCCCCCCOC(=O)OCCS(=O)(=O)O.[Na] | 159 mm | 
2 | 159 mm | Sodium 2-sulfoethyl C16 Guerbet carbonate [SEC16GC] | 170 mm | 
3 | 35 mm | Sodium 2-sulfoethyl C18 Guerbet carbonate [SEC18GC] | 44 mm | 

Row | Compound | Foam Ht., 10 min Ht. [1] | Foam Ht., Initial Ht. [1] | % Zein Solub. [2]
4 | Sodium 2-sulfoethyl tetradecyl/dodecyl (2EO) carbonate [SET/D(2EO)C] | 153 mm | 159 mm | 25%
